The record followed here is patent US5670530A, “Anti-cancer composition comprising rhodacyanine compound and cyclodextrin” (Fuji Photo Film Co., Ltd., priority 1995, dated 1997).

This series concerns ICR mice. Kind of series: Symptom and precipitation in lung after intravenous administration to mice (Example 7). Format: in vivo.
The mark [1] stands for this setting: HP-β-CD concentration increases.

Take `CCn1c(=Cc2sc3c4ccccc4ccc3[n+]2CC)sc(=CC=C2Sc3ccc4ccccc4c3N2C)c1=O` [Compound 1]: the precipitation in lung result by setting is: (HP-β-CD 2.25 w/v %, Animal 1, after one day) “+++”; (HP-β-CD 2.25 w/v %, Animal 2, after one day) “+++”; (HP-β-CD 2.25 w/v %, Animal 3, after one day) “+++”; (HP-β-CD 4.5 w/v %, Animal 1, after one day) “+++”; (HP-β-CD 4.5 w/v %, Animal 2, after one day) “+++”; (HP-β-CD 4.5 w/v %, Animal 3, after one day) “+++”. Also, the precipitation in lung entry is, setting by setting: (HP-β-CD 9.0 w/v %, Animal 1, after one day) “+++”; (HP-β-CD 9.0 w/v %, Animal 2, after one day) “+++”; (HP-β-CD 9.0 w/v %, Animal 3, after one day) “++”; (HP-β-CD 18 w/v %, Animal 1, after one day) “+++”; (HP-β-CD 18 w/v %, Animal 2, after one day) “+”; (HP-β-CD 18 w/v %, Animal 3, after one day) “+”. Further, the symptom after administration entry (HP-β-CD 2.25 w/v %, Animal 1, i.v. 3 mg/ml, 5 ml per 1 kg) is recorded as “died”; the symptom after administration entry (HP-β-CD 2.25 w/v %, Animal 2) is recorded as “died”; the symptom after administration result (HP-β-CD 2.25 w/v %, Animal 3) was “angor”; the symptom after administration entry (HP-β-CD 4.5 w/v %, Animal 1) is recorded as “angor”; the symptom after administration result (HP-β-CD 4.5 w/v %, Animal 2) is listed as “angor”; the symptom after administration result (HP-β-CD 4.5 w/v %, Animal 3) was “angor”. The “precipitation of Compound 1 in lung” value under setting [1] is given as “effectively inhibited”. The “toxity due to precipitation of Compound 1” value under setting [1] is reported as “reduced”.
